Measurements as given in patent US12214059B2, “Cleavable radioligands for targeting cell surface receptors and uses thereof” (Full-Life Te[…] Limited, priority 2021, dated 2025).
Like-named read-outs stand apart in the source and are kept apart here.

Chains of the proteins cited; added tags and fusions are not shown.
UniProt Q04609, whole entry: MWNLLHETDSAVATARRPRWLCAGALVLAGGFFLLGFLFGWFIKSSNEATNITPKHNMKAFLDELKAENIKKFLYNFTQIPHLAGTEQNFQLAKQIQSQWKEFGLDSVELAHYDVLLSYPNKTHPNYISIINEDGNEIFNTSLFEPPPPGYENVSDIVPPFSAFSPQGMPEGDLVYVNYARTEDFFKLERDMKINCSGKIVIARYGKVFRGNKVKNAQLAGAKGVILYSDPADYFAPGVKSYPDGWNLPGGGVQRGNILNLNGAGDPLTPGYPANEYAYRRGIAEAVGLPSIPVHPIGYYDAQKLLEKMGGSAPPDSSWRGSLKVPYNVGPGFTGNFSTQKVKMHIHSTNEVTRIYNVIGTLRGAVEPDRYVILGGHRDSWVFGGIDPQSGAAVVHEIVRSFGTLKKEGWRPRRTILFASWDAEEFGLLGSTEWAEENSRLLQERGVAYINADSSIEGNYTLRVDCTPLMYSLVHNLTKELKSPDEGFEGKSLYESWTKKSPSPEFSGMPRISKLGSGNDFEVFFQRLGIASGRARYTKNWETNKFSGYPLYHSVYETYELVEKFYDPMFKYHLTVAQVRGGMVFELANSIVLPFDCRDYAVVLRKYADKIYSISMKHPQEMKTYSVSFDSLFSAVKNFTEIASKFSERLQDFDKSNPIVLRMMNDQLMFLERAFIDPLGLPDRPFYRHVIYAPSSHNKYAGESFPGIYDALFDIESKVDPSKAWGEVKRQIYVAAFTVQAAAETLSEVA

Columns and labels:
PSMA = biological target: T1, PSMA (Homo sapiens, UniProt Q04609); test: Cell-based radioligand competitive binding assay (^125I-C-8, LNCaP cells); conditions: based on the mean value of the IC50 number; C-1 = 1.00
T1 construct: host or cells: LNCaP cells
Experimental: The culture medium was replaced with fresh medium every 2-3 days. Experiments were performed with cells at 70-80% confluence.
The final volume in each well was maintained at 200 μL and insufficient volume was adjusted by the binding buffer.

[1] = Biodistribution study in CB-17 SCID mice bearing LNCap tumor; format: in vivo; conditions: mouse, iv, total radioactivity
Experimental: Biodistribution Study in CB-17 SCID Mice Bearing LNCap Tumor
All animal care and experimental procedure were performed by following the animal protocols approved by the ethics committee of China Institute of Radiation Protection. The CB-17 SCID mice (Charles River, Beijing) were utilized for these studies. […] These mice received subcutaneous rear flank injections of approximately 4×10^6 LNCap cells suspended in 200 μL of phosphate-buffered saline (PBS) and Matrigel (Corning) (1/1).

| SMILES | Relative Binding Affinity (PSMA) | other results |
| --- | --- | --- |
| O=C(O)CC[C@H](NC(=O)N[C@@H](CCCCNC(=O)[C@H](Cc1ccc2ccccc2c1)NC(=O)[C@H]1CC[C@H](CNC(=O)[C@H](CCCCNC(=O)CN2CCN(CC(=O)O)CCN(CC(=O)O)CCN(CC(=O)O)CC2)NC(=O)CCC(=O)NCCSSCCNC(=O)[C@H](CCC(=O)O)NC(=O)CCCc2ccc(I)cc2)CC1)C(=O)O)C(=O)O [Example I-1, 4pIBA-Glu-SSL1-Lys(DOTA)-Trx-2NaI-eKuE] | 1.84 |  |
| O=C(O)CC[C@H](NC(=O)N[C@@H](CCCCNC(=O)[C@H](Cc1ccc2ccccc2c1)NC(=O)[C@H]1CC[C@H](CNC(=O)CCCCCCCCCCNC(=O)[C@H](CCCCNC(=O)CCC(=O)OCCOC(=O)CCC(=O)NCCNC(=O)CN2CCN(CC(=O)O)CCN(CC(=O)O)CCN(CC(=O)O)CC2)NC(=O)[C@H](CCC(=O)O)NC(=O)CCCc2ccc(I)cc2)CC1)C(=O)O)C(=O)O [Example I-5, 4pIBA-Glu-Lys(-ESL2-DOTA)-Aun-Trx-2NaI-eKuE] | 1.08 |  |
| O=C(O)CC[C@H](NC(=O)N[C@@H](CCCCNC(=O)[C@H](Cc1ccc2ccccc2c1)NC(=O)[C@H]1CC[C@H](CNC(=O)[C@H](CCCCNC(=O)[C@H](CCC(=O)O)NC(=O)CCCc2ccc(I)cc2)NC(=O)CCC(=O)OCCOC(=O)CCC(=O)NCCNC(=O)CN2CCN(CC(=O)O)CCN(CC(=O)O)CCN(CC(=O)O)CC2)CC1)C(=O)O)C(=O)O [Example I-6, DOTA-ESL2-Lys(-Glu-4pIBA)-Trx-2NaI-eKuE] | 0.62 |  |
| CSCC[C@H](NC(=O)CNC(=O)CN1CCN(CC(=O)O)CCN(CC(=O)O)CCN(CC(=O)O)CC1)C(=O)N[C@H](C(=O)N[C@@H](CCCCNC(=O)CCC(=O)NCCCC[C@H](NC(=O)[C@H](CCC(=O)O)NC(=O)CCCc1ccc(I)cc1)C(=O)NC[C@H]1CC[C@H](C(=O)N[C@@H](Cc2ccc3ccccc3c2)C(=O)NCCCC[C@H](NC(=O)N[C@@H](CCC(=O)O)C(=O)O)C(=O)O)CC1)C(=O)O)C(C)C [Example I-9, 4pIBA-Glu-Lys[-Suc-eLys-Val-Met-Gly-DOTA]-Trx-2NaI-eKuE] | 1.80 |  |
| O=C(O)CC[C@H](NC(=O)N[C@@H](CCCCNC(=O)[C@H](Cc1ccc2ccccc2c1)NC(=O)[C@H]1CC[C@H](CNC(=O)[C@H](CCCCCC(=O)CN2CCN(CC(=O)O)CCN(CC(=O)O)CCN(CC(=O)O)CC2)NC(=O)CCCOC(=O)CNC(=O)c2cc(C(=O)NCCNC(=O)COCCOCCNC(=O)[C@H](CCC(=O)O)NC(=O)CCCc3ccc(I)cc3)cc(C(=O)NCC(=O)OCCCC(=O)N[C@@H](CCCCNC(=O)CN3CCN(CC(=O)O)CCN(CC(=O)O)CCN(CC(=O)O)CC3)C(=O)NC[C@H]3CC[C@H](C(=O)N[C@@H](Cc4ccc5ccccc5c4)C(=O)NCCCC[C@H](NC(=O)N[C@@H](CCC(=O)O)C(=O)O)C(=O)O)CC3)c2)CC1)C(=O)O)C(=O)O [Example I-33, 4pIBA-Glu-OEG-NH2CH2CH2NH-TMA[-ESL1-Lys(DOTA)-Trx-2NaI-eKuE]2] | 0.81 |  |
| O=C(O)CC[C@H](NC(=O)N[C@@H](CCCCNC(=O)[C@H](Cc1ccc2ccccc2c1)NC(=O)[C@H]1CC[C@H](CNC(=O)CN2CCN(CC(=O)O)CCN(CC(=O)O)CCN(CC(=O)O)CC2)CC1)C(=O)O)C(=O)O [^177Lu—C-1, metal not drawn, reference compound] |  | tissue uptake at 24 h ([1]; Blood, 24 h): 0.01 %ID/g; tissue uptake at 72 h ([1]; Heart, read-out: Biodistribution, Heart): 0.07 %ID/g; tissue uptake at 72 h ([1]; Muscle, read-out: Biodistribution, Muscle): 0.02 %ID/g; tissue uptake at 168 h ([1]; Muscle, 168 h): 0.02 %ID/g |
